# Test system: LM2 cells
# Assay: Lung metastasis formation after tail vein injection of LM2 cells, pharmacological targeting, bioluminescence imaging
# Format: in vivo, Balb/c nude mice
# Conditions: preliminary results; drugs individually or in combination; FIGS. 2A and 2B
substance,measurement,value
Erbitux: anti-EGFR antibody to target the epiregulin pathway,preventing lung metastasis,findings similar to those obtained using genetic knockdowns

# Reference: patent publication US8178505B2, “Method of predicting and reducing risk of metastasis of breast cancer to lung” (Sloan-Kettering Institute for Cancer Research, priority 2005, dated 2012)
